{"source": "patent US20070027634A1", "about": "“Molecular hepatotoxicology modeling” (priority 2002, published 2007)", "origin": "cited, not measured here", "key": {"[1]": {"settings": "rats; cited from earlier work"}, "[2]": {"settings": "humans, poisoning; cited from earlier work"}}, "data": [{"smiles": "S=C=Nc1cccc2ccccc12", "note": "[ANIT, α-naphthylisothiocyanate]", "values": [{"measurement": "liver finding (pathology)", "setting": "[1]", "result": "neutrophil-dependent necrosis of bile duct epithelial cells (BDECs) and hepatic parenchymal cells"}]}, {"smiles": "ClC(Cl)Cl", "note": "[chloroform, Chloroform]", "values": [{"measurement": "serum lactate dehydrogenase level", "setting": "[2]", "result": "decreased levels"}]}]}
